Assay: Particle size analysis on a Horiba Laser light scattering particle size analyzer
Type: physicochemical
Settings: after low shear mixing into xylene dispersion (Comparative Example A)
Method: As a comparison to the dispersions of the present invention, 13 grams “LAROFLEX MP25” polymer resin (vinyl chloride-isobutyl vinyl ether copolymer, a product of BASF Corporation, Charlotte, N.C.) was dissolved into 832 grams of xylene. […] The mixture was stirred at low speed (1000 rpm) and with low shear for 0.5 hours to provide adequate mixing until a homogenous mixture was achieved.
The diluted sample was then run though a Mini Zeta Netzsch mill for 150 minutes at 2000 rpm.

On1ccccc1=S.On1ccccc1=S.[Cu] [Copper Pyrithione, copper pyrithione]
Mean Particle Size: 3.05 Microns | Median Particle Size: 3.36 Microns

Source: patent US6821326B2, “Small particle copper pyrithione” (Arch Chemicals, Inc., priority 2002, dated 2004)
